For one molecule, AC40 results are on record in PubChem BioAssay AID602296 (Broad Institute, 2012).

Some of these compounds have results that are not shown, active ones among them. Results filed as inconclusive are left out. Activity calls are given as the source filed them.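 How the source made its calls: active means fitted activation curve crossing 40% at a concentration no higher than the sample's top valid tested dose; inconclusive means flat fitted curve at 30% to 70% activation, or poor curve fit; inactive means signal decrease, flat curve within 30%, or the rest.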 Bounds are passed on as bounds.

This assay concerns NIH3T3-HGL HSF-1 response element luciferase, 48 h. Put plainly: sustained heat shock response element induction – cell-based, mouse, luciferase, cherry-pick, dose, confirmation (AID 602296).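 Further: test compounds applied by themselves with no MG132 co-treatment.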

On to `COc1cc(C(=O)NCC2(N(C)C)CCCCC2)c([N+](=O)[O-])cc1OC`, for which the AC40 was inactive: > 26 µM.
